# Yeast mating assay 2: variants of the scFv Ab-91

Reference: Engelhart et al. 2022, doi:10.1038/s41597-022-01779-4. File: FLAb, binding data.

All variants were tested on one target, the spike HR2 peptide PDVDLGDISGINAS (SARS-CoV-2).

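The starting antibody came from a phage panning campaign against this peptide. In library AAYL51, one, two or three CDR residues were substituted; doubles and triples were drawn at random. The scFvs were displayed on barcoded MATa yeast, the peptide on MATalpha yeast. The frequency of each diploid, read from paired DNA barcodes, reflects how well the two displayed proteins bind. Read counts were normalised to the haploid input and turned into Kd by a linear fit to BCL2-family pairs of known affinity, for each replicate. Mating was done three times.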

The variants keep the light chain, the linker and the frameworks of Ab-91 (scFv order VL, the linker GGGGSGGGGSGGGGS, VH).
VL: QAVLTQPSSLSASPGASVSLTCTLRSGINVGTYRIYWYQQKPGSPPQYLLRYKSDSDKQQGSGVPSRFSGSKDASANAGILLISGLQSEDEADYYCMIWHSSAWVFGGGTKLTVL
VH: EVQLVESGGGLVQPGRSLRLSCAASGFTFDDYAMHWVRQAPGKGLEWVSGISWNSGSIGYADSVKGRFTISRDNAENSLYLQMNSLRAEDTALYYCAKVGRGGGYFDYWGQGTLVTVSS

Substitutions are numbered in sequence along the VH above, starting at 1 (not Kabat). Values are log10 of the apparent Kd in nM; lower means stronger binding. Where no diploid with the target was found in that replicate, the entry reads "nd": below detection, most likely a poor binder, though not proof of it. Parent in this assay: reference entry 1.86, copy in this library 0.88. Three control strains display no target. For library AAYL51, 21% of the pairings with them gave a signal, with a median of 4.54 and one signal in twenty below 3.26, so weak values seen in few replicates may be background.

changes,log10 Kd (nM) by replicate
D30Y/G104K/D107V,nd nd nd
S52I/G56V/F106T,nd nd nd
F29Q/D30E/G100P,3.34 nd 3.99
D31Y/F106W/D107P,nd nd nd
T28A/D31P/V99K,nd nd nd
D30W/S57H,3.46 3.73 4.03
A33I/F106R/Y108H,nd nd nd
D30E/Y60G/V99N,nd nd 3.25
Y32D/G56N/G104R,nd nd nd
S57N/A61N/R101K,nd nd nd
S52N/G56V/G103M,1.91 nd 1.81
D31K/M34V/R101A,1.14 1.26 0.57
S52W/G100L/R101A,3.81 nd nd
Y60Q/Y105P,nd nd nd
G50T/S55E/G102R,nd nd nd
T28G/G50V/G56L,nd nd nd
G26H/G50Q/W53Q,6.28 3.52 4.51
F29T/G102T,nd nd nd
D30I/M34V/G56V,nd nd nd
G26N/V99G,nd 6.30 4.35
A33V/S52V/G56A,nd 5.79 nd
D30E/D31K/S55R,3.25 3.86 4.92
F27R/S55D/A61F,nd nd nd
Y60K/D62Q/Y105I,nd nd 4.48
G26S/W53Y/V64A,nd nd nd
H35F/G104N/F106T,nd 5.62 4.76

Further variants, results first:

log10 Kd (nM) by replicate,changes
5.22 nd nd,F27A/W53R/S55I
4.93 5.23 nd,S52M/Y60K/D107V
nd 6.39 nd,A61F/V64R/Y105M
nd nd nd,I51M/K65L/F106L
4.03 2.99 2.36,F29W/W53A/Y105F
5.18 4.91 nd,N54P/G100P/R101P
4.08 6.13 nd,D62W/Y105N/D107T
3.67 nd 2.53,G56S/S63A
nd nd nd,D31V/I51V/S63I
nd nd nd,H35K/S57T/R101S
nd nd nd,D30A/K65Q
nd nd nd,F27L/T28A/K65N
nd nd nd,F27D/G56A/G103Y
nd nd nd,F27W/T28A/R101E
nd nd nd,T28F/V99P
1.18 1.39 0.98,D62P/G100R
4.60 5.42 nd,H35S/V99P/G100A
nd nd nd,Y32N/N54K/R101Q
nd nd nd,H35V/G50Q/N54Q
nd 2.20 2.37,R101V/F106W
4.76 4.89 4.54,Y32Q/I58Q/D107F
5.16 6.04 3.64,A33P/G100Q
5.27 7.10 5.33,G26E/A33S/I51K
nd nd nd,F29N/G100K/Y108W
nd nd nd,Y60A/V64T/G102S
3.85 5.19 4.99,D30M/G102N/G103Q

Top 7 of the variants detected in all replicates, tightest first:

{"changes": "D31K/M34V/R101A", "log10 Kd (nM) by replicate": "1.14 1.26 0.57"}
{"changes": "D62P/G100R", "log10 Kd (nM) by replicate": "1.18 1.39 0.98"}
{"changes": "F29W/W53A/Y105F", "log10 Kd (nM) by replicate": "4.03 2.99 2.36"}
{"changes": "D30W/S57H", "log10 Kd (nM) by replicate": "3.46 3.73 4.03"}
{"changes": "D30E/D31K/S55R", "log10 Kd (nM) by replicate": "3.25 3.86 4.92"}
{"changes": "D30M/G102N/G103Q", "log10 Kd (nM) by replicate": "3.85 5.19 4.99"}
{"changes": "Y32Q/I58Q/D107F", "log10 Kd (nM) by replicate": "4.76 4.89 4.54"}